Literature values in patent US6069167A, “Use of antioxidant agents to treat cholestatic liver disease” (priority 1997, dated 2000).

Legend:
[1] = cited from earlier work
[2] = cited from earlier work; remark: listed apart in the source

What does the source list for “D-alpha-tocopheryl polyethylene glycol-1000 succinate [TPGS]”?
Absorption during severe cholestasis [1]: the only form of Vitamin E that is absorbed during severe cholestasis; Intestinal absorption of other fat-soluble substances (cyclosporin, Vitamin D) ([1]; when bile flow is impaired): can improve the intestinal absorption of other fat-soluble substances; Micelle formation ([2]; absence of bile salts): form micelles in the absence of bile salts; Water solubility [2]: uniquely water-soluble
